Test results from patent US10035794B2, “Heterocyclic derivatives and their use in the treatment of neurological disorders” (NOVARTIS AG, priority 2011, dated 2018).

Assay: Test 4: Inhibition of Cellular Release of Amyloid Peptide 1-40
Format: cell-based, Chinese hamster
Conditions: Cricetulus griseus, CHO, 24 h; read-out: Amyloid-β1-40 release IC50
Method: Chinese hamster ovary cells are transfected with the human gene for amyloid precursor protein. The cells are plated at a density of 8000 cells/well into 96-well microtiter plates and cultivated for 24 hours in DMEM cell culture medium containing 10% FCS. The test compound is added to the cells at various concentrations, and the cells are cultivated for 24 hours in the presence of the test compound.

| Compound | IC50 |
| --- | --- |
| NC(=S)c1ccc(C(=O)Nc2cccc(C3(CF)COCC(N)=N3)n2)nc1 (centres unmarked) [Example 7, 5-Thiocarbamoyl-pyridine-2-carboxylic acid [6-(5-amino-3-fluoromethyl-3,6-dihydro-2H-[1,4]oxazin-3-yl)-pyridin-2-yl]-amide] | 640 nM |
| NC1=NC(CF)(c2ccnc(NC(=O)c3ccc(Cl)cn3)c2)COC1 (centres unmarked) [Example 14, 5-Chloro-pyridine-2-carboxylic acid [4-(5-amino-3-fluoromethyl-3,6-dihydro-2H-[1,4]oxazin-3-yl)-pyridin-2-yl]-amide] | 660 nM |
